This passage reports activity change, negative = inhibition results from PubChem BioAssay AID1454 (National Center for Advancing Translational Sciences (NCATS), 2008).

This is a selection; strong and weak results do not stand in their true shares. Some of these compounds have results that are not shown, active ones among them. Inconclusive results are not listed. Active and inactive are the calls of the source. The call rests on the fitted dose curve; in most records, active means well fitted inhibition curve with a large enough effect; inconclusive means small, poorly fitted or top-dose-only effect, or effect the other way; inactive means flat fitted curve, though single readings scatter.

The nature of the assay: qHTS Assay for Inhibitors of the ERK Signaling Pathway using a Homogeneous Screening Assay; Stimulation with EGF.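 Further: plate controls were stimulated vehicle wells for no effect and unstimulated vehicle basal for full effect; nearly all actives have a fitted effect of over 55% in size.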 To be noted: HEK293-V1b, EGF-stimulated phospho-ERK AlphaScreen; at 11.5 µM unless noted. A general note: In qHTS, concentration-response curves come from the screen itself.
As for `COc1cccc(C(=O)NCC2(N3CCCCC3)CCCCC2)c1`, the activity change, negative = inhibition is inactive: -2.95%.
With `COc1ccc(Br)c(C(=O)NCC2(N3CCCCC3)CCCCC2)c1` the figure was inactive: 2.92% [at 57.5 µM]; with `CCN(CC)CC(C)C(C)OC(=O)C(O)(c1ccccc1)c1ccccc1` (stereo not drawn), inactive: -2.13% [at 57.5 µM]; with `O=C(NCC1(N2CCCCC2)CCCCC1)c1cc([N+](=O)[O-])ccc1Cl`, inactive: -5.85% [at 57.5 µM].
With `C=CCN1CCN(CCOC(=O)C(O)(c2ccccc2)c2ccccc2)CC1` the figure was inactive: -6.98%.
For the compound `CCN1CCCC(OC(=O)C2(O)c3ccccc3C=Cc3ccccc32)C1` (stereo not drawn), the activity change, negative = inhibition is inactive: 18.8%.
On to `CN(C)C1CCCC1OC(=O)C(O)(c1ccccc1)c1ccccc1` (stereo not drawn), for which the activity change, negative = inhibition is inactive: 7.94%.
Turning to `Cc1ccccc1C(=O)NCC1(N2CCCCC2)CCCCC1`, the activity change, negative = inhibition is inactive: 0.133%.
